# Measurements taken from US9090617B1, “Agonists of Src homology-2 containing protein tyrosine phosphatase-1 and treatment methods using the same” (National Taiwan University, priority 2011, dated 2015).
# Tested on: p-VEGFR2 (Tyr1175)
# Conditions: HUVEC cells, 10 μM, 24 h
smiles,measurement,value
"CNC(=O)c1cc(Oc2ccc(NC(=O)Nc3ccc(Cl)c(C(F)(F)F)c3)cc2)ccn1 [Sorafenib, reference compound]",phosphorylation of VEGFR,down-regulated the phosphorylation of VEGFR
